Read-outs that look alike come from different tables or passages of the source.
Tests used:
[1] = molecular target: T1, human RAR/RXR heterodimer (pBIND-HsaRARγ-LBD / pACT-HsaRXRγ-LBD) (Homo sapiens, UniProt P13631); conditions: agonist; 10 μM; 24 h; 37 °C; positive control
T1 construct: gene RARG

Sequences of proteins named here, by UniProt entry; tags and fusion partners are left off. Residues count along the entry.
UniProt P13631, 156-454 limits assumed: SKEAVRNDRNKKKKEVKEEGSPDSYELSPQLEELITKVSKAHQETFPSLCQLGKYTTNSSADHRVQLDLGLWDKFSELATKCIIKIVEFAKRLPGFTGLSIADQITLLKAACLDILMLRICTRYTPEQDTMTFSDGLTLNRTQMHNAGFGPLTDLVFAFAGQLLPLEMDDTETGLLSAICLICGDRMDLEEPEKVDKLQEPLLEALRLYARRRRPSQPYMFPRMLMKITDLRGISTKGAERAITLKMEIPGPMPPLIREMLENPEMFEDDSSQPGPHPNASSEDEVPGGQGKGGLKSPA
UniProt A0A5P8FS51, entry or part of it: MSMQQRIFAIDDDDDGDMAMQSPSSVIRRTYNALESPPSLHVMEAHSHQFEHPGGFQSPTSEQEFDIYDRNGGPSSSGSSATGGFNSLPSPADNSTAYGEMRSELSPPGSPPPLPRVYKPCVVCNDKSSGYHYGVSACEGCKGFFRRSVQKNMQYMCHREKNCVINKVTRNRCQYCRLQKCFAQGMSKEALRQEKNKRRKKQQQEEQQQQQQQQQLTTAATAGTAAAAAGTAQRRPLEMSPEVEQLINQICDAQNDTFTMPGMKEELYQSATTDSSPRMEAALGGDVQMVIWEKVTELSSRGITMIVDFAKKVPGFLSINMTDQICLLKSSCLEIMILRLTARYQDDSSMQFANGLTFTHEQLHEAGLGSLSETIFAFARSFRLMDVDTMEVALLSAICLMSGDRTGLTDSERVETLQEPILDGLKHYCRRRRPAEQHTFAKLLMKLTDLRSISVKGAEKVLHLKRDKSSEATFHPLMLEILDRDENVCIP

[2] = molecular target: T2, HsaRARγ (pBIND-HsaRARγ-LBD) (Homo sapiens, UniProt P13631); conditions: agonist; 0.1, 1 and 10 μM; 24 h; 37 °C; positive control
T2 construct: gene RARG

[3] = molecular target: PcauRAR LBD (trigger factor hybrid protein) (Priapulus caudatus, UniProt A0A5P8FS51); conditions: 4 °C, labelled compound

| Structure (SMILES) | fold-induction [1] | fold-induction [2] | competitive radioligand binding, hydroxyapatite precipitation ([3]; 10 nM [3H]ATRA or [3H]9cisRA displaced by unlabelled 9cisRA) | competitive radioligand binding, hydroxyapatite precipitation ([3]; 10 nM [3H]ATRA displaced by unlabelled ATRA) |
| --- | --- | --- | --- | --- |
| CC1=C(/C=C/C(C)=C\C=C\C(C)=C\C(=O)O)C(C)(C)CCC1 [9cisRA] | the RAR/RXR heterodimer activates luciferase transcription upon binding to the tested retinoids | but at a lesser degree than HsaRARγ (Figure 3A) | The ability of PcauRAR to bind to ATRA and 9cisRA was clearly demonstrated |  |
| CC1=C(/C=C/C(C)=C/C=C/C(C)=C\C(=O)O)C(C)(C)CCC1 [13cisRA] | the RAR/RXR heterodimer activates luciferase transcription upon binding to the tested retinoids | but at a lesser degree than HsaRARγ (Figure 3A) |  |  |
| CC1=C(/C=C/C(C)=C/C=C/C(C)=C/C(=O)O)C(C)(C)CCC1 [ATRA] | the RAR/RXR heterodimer activates luciferase transcription upon binding to the tested retinoids | but at a lesser degree than HsaRARγ (Figure 3A) |  | The ability of PcauRAR to bind to ATRA and 9cisRA was clearly demonstrated |
